Key:
[1] = system: ribosomes and initiation factors like eIF4E; format: biochemical; details: rabbit reticulocyte lysate; inhibition of luciferase signal relative to 1002a; FIG. 16
[2] = system: Primary human hepatocytes; assay: Luciferase expression in primary human hepatocytes; format: cell-based; details: 6 hours after transfection, both transfection doses, compared to 1002a
Description: The harvested cell lysate was subjected to conditions to derive a quantifiable fluorescent signal. This signal was then compared to analog 1002a to determine how structural differences may be related to the changes in expression. Primary human hepatocytes were subjected to two different doses of mRNA encoding for the protein luciferase made using the indicated test analogs. A single RNA molecule may be interpreted by protein synthesis machinery multiple times, so an analog that may increase the frequency of interpretation may be desirable as a 5′ initiator. This frequency of interpretation, or translation efficiency, may be determined by measuring the amount of protein produced in a population of cells exposed to a known amount of RNA at a given point following that exposure. The duration of expression may also be assessed to determine how an analog may sustain the observed expression, as the RNA molecule is eventually decayed within the cell thereby destroying its protein-encoding capacity. […] Similar protein expression profiles was also observed at 24 hours post transfection (FIG. 17b).

The chains behind the UniProt entries cited, without tags or fusion partners. Where a name states a change or a piece, a line headed by the entry shows the natural chain unless it says otherwise.
UniProt Q06151: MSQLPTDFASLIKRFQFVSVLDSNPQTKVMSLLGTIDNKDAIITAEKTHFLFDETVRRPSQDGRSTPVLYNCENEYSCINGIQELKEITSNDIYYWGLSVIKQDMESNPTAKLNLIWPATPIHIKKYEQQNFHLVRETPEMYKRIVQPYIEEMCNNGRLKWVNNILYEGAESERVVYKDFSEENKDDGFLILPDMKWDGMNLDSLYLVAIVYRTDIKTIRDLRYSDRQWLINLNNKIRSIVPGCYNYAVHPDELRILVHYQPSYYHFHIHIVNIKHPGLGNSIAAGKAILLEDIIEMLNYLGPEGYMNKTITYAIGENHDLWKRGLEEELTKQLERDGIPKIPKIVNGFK

[3] = molecular target: T1, recombinant yeast pyrophosphatase, DcpS (Saccharomyces cerevisiae, UniProt Q06151); format: biochemical; details: DcpS with 8-40 μM analog; relative to 1002a; FIG. 15
T1 construct: purchased

## COC1C(OP([O-])(=S)OCC2OC(n3cnc4c(=O)[nH]c(N)nc43)C(O)C2O)C(COP(=O)(O)OP(=O)(O)OP(=O)(O)OCC2OC(n3c[n+](C)c4c(=O)[nH]c(N)nc43)C(O)C2O)OC1n1cnc2c(N)ncnc21 (stereo not shown) [1007a, m^7G(ppp) Am(ps)G]
[1]
  relative ribosome affinity (ribosome recruitment): slightly less efficient

## COC1C(O[P@@]([O-])(=S)OCC2OC(n3cnc4c(=O)[nH]c(N)nc43)C(O)C2O)C(COP(=O)(O)OP(=O)(O)OP(=O)(O)OCC2OC(n3c[n+](C)c4c(=O)[nH]c(N)nc43)C(O)C2O)OC1n1cnc2c(N)ncnc21 (stereo partly shown) [1007a_D1, m^7G(ppp) Am(ps)G]
[1]
  relative ribosome affinity (ribosome recruitment): slightly less efficient
[2]
  relative luciferase expression: most cap analogs except 1007a_D1 showed similar expression

## COC1C(O[P@]([O-])(=S)OCC2OC(n3cnc4c(=O)[nH]c(N)nc43)C(O)C2O)C(COP(=O)(O)OP(=O)(O)OP(=O)(O)OCC2OC(n3c[n+](C)c4c(=O)[nH]c(N)nc43)C(O)C2O)OC1n1cnc2c(N)ncnc21 (stereo partly shown) [1007a_D2, m^7G(ppp) Am(ps)G]
[3]
  relative pyrophosphatase resistance: most pyrophosphatase resistant
[1]
  relative ribosome affinity (ribosome recruitment): lowest ribosome affinity

## COC1C(OP(=O)(O)OCC2OC(n3cnc4c(=O)[nH]c(N)nc43)C(O)C2O)C(COP(=O)(O)OP(=O)([O-])OP(=O)(O)OCC2OC(n3c[n+](Cc4ccc(Cl)cc4)c4c(=O)[nH]c(N)nc43)C(O)C2O)OC1n1cnc2c(N)ncnc21 (stereo not shown) [compound 5231, 4-Cl-Bn7G(ppp) Am(p)G]
[3]
  relative pyrophosphatase resistance: more stable than 1002a, 1007a and 1007a_D1
[1]
  relative ribosome affinity (ribosome recruitment): most efficient ribosome recruitment

— patent US20250084409A1, “COMPOSITIONS AND METHODS FOR CAPPING RNAS” (Verve Therapeutics, Inc., priority 2022, published 2025)
